## Measured affinities in a library of Ab-14 light chain variants

The target is the same throughout: PDVDLGDISGINAS, from the HR2 region of SARS-CoV-2 spike.

Parent scFv Ab-14: VH joined to VL by the linker GGGGSGGGGSGGGGS. Changes lie in the light chain CDRs alone.
VH: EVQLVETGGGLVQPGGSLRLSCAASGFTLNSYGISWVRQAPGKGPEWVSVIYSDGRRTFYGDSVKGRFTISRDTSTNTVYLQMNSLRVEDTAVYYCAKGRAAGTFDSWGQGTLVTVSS
VL: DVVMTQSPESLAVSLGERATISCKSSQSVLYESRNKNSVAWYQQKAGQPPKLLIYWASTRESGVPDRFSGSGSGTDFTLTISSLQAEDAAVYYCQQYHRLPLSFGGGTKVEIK

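Designed CDR sequences, proposed from the first random library and measured here. Their group label is 14L_Ctrl (Ctrl: baseline library sampled from a position-specific scoring matrix, with some repeated check sequences). The scFvs were displayed on barcoded MATa yeast, the peptide on MATalpha yeast. Pairs that bind mate more often; barcode pairs of the diploids are counted by sequencing. Scores were corrected for input abundance and mapped to Kd with protein pairs of known affinity run in the same pool. Each pool was mated in six replicate cultures.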

Variants are written as CDR1, CDR2 and CDR3 of the light chain (limits as in the source). Parent: KSSQSVLYESRNKNSVA, WASTRES, QQYHRLPLS.
Scale: log10 of Kd in nM, estimated from mating counts; low values are strong binders.
A pair that was not seen in that replicate is written "ND"; this usually means weak binding, but a binder can also be missed.
Nonspecific signal, from three strains lacking the peptide, appeared in 4% of pairings of all light chain designs, centred on 2.64 (5% of these signals below 1.59); values are not corrected for it. For each scFv, signals with the empty controls are counted beside the result, with their mean in brackets.
The range of this assay differs from that of the first round, and the authors advise against merging the two.
In the paper, a design with two or fewer of six values counts as a poor binder.

CDR-L1 | CDR-L2 | CDR-L3 | replicates, log10 nM | empty controls
KSCQSVLYESRNKNSVA | WASTRES | QQYHRLPPS | ND ND ND ND ND ND | 0/18
KCSQSVLYHSRNKNSVA | GASTRES | QQYHHLPLS | 0.74 0.82 1.93 0.24 0.54 0.90 | 0/18
KGSQSVLYEERNKNSVA | WATTRES | QQYHRLPLS | ND 2.39 ND 1.13 1.84 1.62 | 0/18
KSSQSVLPEMRNKNSVA | WASTRES | QQYHRLPAS | ND ND ND ND ND ND | 0/18
KSSQSVQYESRNKNSVA | WASTRES | QQYHRLPLS | ND ND ND ND ND ND | 0/18
KLSDSVEYESRNKNSVA | WASERES | QQYHRLPLS | ND ND ND ND ND ND | 0/18
KSSQSVLYESRNKNNIA | WASTRES | QQYHRLPLS | 1.84 0.39 0.76 1.07 1.50 1.03 | 1/18 (1.24)
KSSQSLGYESSNKNSVA | WASTRES | QQYHRLPLS | 0.97 1.00 1.01 0.60 0.68 0.41 | 1/18 (1.43)
KSSMSEWYESRNKNSVA | TASTRES | QQYHRIPLS | 1.63 1.02 ND 2.30 1.01 1.23 | 0/18
KSSQSVLYESGNGNSVA | WASIRES | QQYHRLVFS | ND ND ND ND ND ND | 0/18
KSSQGVRYESRNKNSVA | WASTRES | QQYHKLPLS | ND ND 1.92 ND ND ND | 0/18
KISQSVLYESRNKNSVA | RASTRES | QQYHRLVLS | 1.77 0.63 ND 0.67 1.70 -0.17 | 0/18
KSSQSGLYESRNMNSVA | DASTRSS | QQYHRLPLS | 0.07 -0.18 -0.14 -0.10 -0.16 0.11 | 1/18 (2.61)
KSSLSVLYESRNKNSVA | WASTRES | QQYNRLPLS | ND ND ND 2.94 ND ND | 1/18 (2.22)
KSSQSMLQESRNKNNVA | WASTRES | QQYHRLPLY | ND ND ND ND 1.24 ND | 0/18
KSSQSGGYMSDNENSVA | WASTKES | QQYHRLPLS | 1.96 0.95 0.38 0.53 0.70 0.76 | 1/18 (1.51)
KSSQSVLYESRNKNSVA | NASTRES | QQYHPLPLS | 3.26 0.91 0.69 1.82 0.85 1.63 | 2/18 (2.63)
KSSQSVLTESRNKNSVA | WASTRES | QQYHRLPLS | ND 1.72 2.96 1.30 1.68 1.89 | 1/18 (2.77)
KSSFSLLYESRNLNSVA | WASTRES | QQYHRLPLS | 3.54 1.70 1.77 1.37 0.59 0.90 | 1/18 (2.80)
KSSQSVLYESRNKNSVA | HASTRIS | QQYHRLPLL | 1.63 1.08 0.97 0.98 1.32 1.24 | 3/18 (2.11)
KWSQSVLYESRNKNSVA | WASTRES | QQYQRLPLS | 1.01 1.08 0.72 0.81 1.69 1.79 | 2/18 (1.98)
KSSQSVYYESRNKNNVA | WASTREY | QQYHRLPLS | ND ND ND ND ND ND | 1/18 (2.64)
KSSQSLLYESRNKNSVA | WASTRES | DQYHRLPLF | ND ND ND ND ND ND | 0/18
KSSQSVAYESRNKNSVA | DASTRES | QQYHRLPLS | 0.31 0.18 -0.15 0.12 0.08 0.27 | 1/18 (2.40)
KSSQSVLYESRNHNSVA | AASTVES | QQYHRLPLS | 0.84 1.09 0.72 1.01 0.76 0.76 | 1/18 (1.45)
KSSQSVPMESRNKNSVA | AGGTRES | QQYHRLPLS | 0.43 0.43 0.38 0.18 0.26 0.52 | 2/18 (3.88)
KSSQSVLMESRNKHSVA | WASTRES | QLYHRLPLS | ND ND ND ND ND ND | 1/18 (2.04)
KSSQNVLYESRNKNSVA | WGSTRES | QQYDRLPLS | ND 1.73 1.25 1.34 ND ND | 0/18
KSSQSVLVESRNKNSVA | WASTRES | QQYARLPLS | ND ND ND ND ND ND | 1/18 (1.67)
KSSSSVLYEHRNENSVA | QASTRES | QQYHRLPLS | 0.56 0.30 0.22 0.23 0.04 0.43 | 0/18
KSSQSVLYESRNKNSVA | SASTRET | QQYHRLPLS | 0.54 0.83 0.56 0.38 0.88 0.63 | 3/18 (2.50)
KSSQSVLAEKRCKNSVA | WASTRES | QQYHNLPLS | ND 2.10 2.08 2.34 2.66 2.47 | 0/18
KSDQSVLYESRNCNSVA | WASTRES | QQYHRLPLS | ND 2.25 ND 2.45 3.02 2.32 | 1/18 (2.16)
KSSQSVLMESNNKNSVA | WASKRES | QQYHRLPLS | 0.62 0.72 0.70 0.39 0.95 1.23 | 0/18
KLVQSVLYESRNDNSIA | WASTRES | QQYHRLPLS | ND 2.69 1.77 1.60 ND ND | 0/18
KSSQSVLDESRNKNSVA | YASTRES | QQYHRLPLS | 0.60 0.50 0.58 0.33 0.56 0.76 | 0/18
KHSQSVLYESRDKNSVA | MASTRES | QQYHRLPLS | ND 1.35 2.56 1.97 1.53 1.46 | 0/18
KSSQSVLYESRPKNSLA | WASTREM | QQYDRLPLS | 0.96 1.01 0.09 0.40 0.66 1.05 | 3/18 (2.60)
KSSQSVLYESRNKNSVA | WASTREL | KQPHRLPLS | ND ND 1.50 ND ND ND | 0/18
KASQSVLYESRNKNSVA | WASTRES | QWYHRLPLS | ND ND ND ND ND ND | 0/18
KFSQSVLYESRNKNSVA | WASTRES | QQYMSLPLS | 1.76 0.27 0.44 0.74 -0.14 0.46 | 0/18
KSSQNVLYQSRNKNSVA | WASTREN | QQYHRLPLS | ND 2.67 2.48 2.62 ND 3.34 | 0/18
KSPTSLLYESRNKNSVA | WASTRDS | QQYHRLPLS | 1.12 0.73 0.86 0.44 0.40 0.80 | 0/18
KSSQSWLYESRNPNSVA | WASTRES | QQYHRLPLS | 2.28 1.60 1.07 1.55 1.33 1.63 | 2/18 (2.15)
KSDQNVLYESWNKNSVA | WASTRIS | QQQHRLPLS | ND ND ND ND ND ND | 0/18
KQSQSVLYESSNKWSVA | YASTRES | QQYHRLPLS | ND ND ND ND ND ND | 0/18
KSSVSGLYEARNKNSVA | NASTRES | QQYHRLPLS | 0.02 0.06 -0.05 0.06 0.13 0.22 | 1/18 (2.33)
KSPQSVLYESRNKNSVA | WASTRES | QQYHKLPLS | 0.74 0.34 0.39 0.42 0.49 0.48 | 1/18 (2.31)
KSNQSDLYESRNKNSVA | WASTRES | QQYHRLPLS | 2.03 2.11 1.17 2.50 2.15 3.04 | 2/18 (3.19)
KNYQSVLYESRNKNSVA | QASTRES | QQYHRKPLS | 0.92 0.44 0.66 0.38 0.43 0.95 | 0/18

Excerpt, the first 8 entries:

CDR-L1	CDR-L2	CDR-L3	replicates, log10 nM	empty controls
KSCQSVLYESRNKNSVA	WASTRES	QQYHRLPPS	ND ND ND ND ND ND	0/18
KCSQSVLYHSRNKNSVA	GASTRES	QQYHHLPLS	0.74 0.82 1.93 0.24 0.54 0.90	0/18
KGSQSVLYEERNKNSVA	WATTRES	QQYHRLPLS	ND 2.39 ND 1.13 1.84 1.62	0/18
KSSQSVLPEMRNKNSVA	WASTRES	QQYHRLPAS	ND ND ND ND ND ND	0/18
KSSQSVQYESRNKNSVA	WASTRES	QQYHRLPLS	ND ND ND ND ND ND	0/18
KLSDSVEYESRNKNSVA	WASERES	QQYHRLPLS	ND ND ND ND ND ND	0/18
KSSQSVLYESRNKNNIA	WASTRES	QQYHRLPLS	1.84 0.39 0.76 1.07 1.50 1.03	1/18 (1.24)
KSSQSLGYESSNKNSVA	WASTRES	QQYHRLPLS	0.97 1.00 1.01 0.60 0.68 0.41	1/18 (1.43)

From the AlphaSeq antibody data of Li et al. 2023 (doi:10.1038/s41467-023-39022-2), copy in the FLAb collection.